System: T. congolense 6C3
Assay type: cell-based, Trypanosoma congolense
Conditions: resistance factor = EC50 (test strain)/EC50(control strain)
Procedure: EC50 values were determined by plotting to an equation for a sigmoid curve with variable slope (GraphPad Prism 8). All values were the average of at least three independent determinations on different days.

Nc1ncnc2c1ccn2[C@@H]1O[C@H](CO)[C@@H](O)[C@H]1O [Tubercidin, 7-deazaadenosine]
T. congolense 6C3 RF: 0.58
